From ChEMBL document CHEMBL4428134, “Discovery of AZD2716: A Novel Secreted Phospholipase A2 (sPLA2) Inhibitor for the Treatment of Coronary Artery Disease” (ACS Med Chem Lett, 2016)

Columns and labels:
[1] = target: T1, Phospholipase A2, membrane associated (Homo sapiens, UniProt P14555); test: Inhibition of recombinant sPLA2-2A (unknown origin) using 1-palmitoyl-2-oleoyl-sn-glycero-3-phosphocholine as substrate preincubated for 10 mins followed by substrate addition measured after 60 mins by colorimetric method
T1 sequence (P14555 whole entry): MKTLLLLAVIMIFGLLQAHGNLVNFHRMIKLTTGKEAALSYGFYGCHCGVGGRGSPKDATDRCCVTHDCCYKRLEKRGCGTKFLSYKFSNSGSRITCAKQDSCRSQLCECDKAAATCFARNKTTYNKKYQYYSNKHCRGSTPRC

[2] = target: T2, Group 10 secretory phospholipase A2 (Homo sapiens, UniProt O15496); test: Inhibition of recombinant sPLA2-10 (unknown origin) using 1-palmitoyl-2-oleoyl-sn-glycero-3-phosphocholine as substrate preincubated for 10 mins followed by substrate addition measured after 60 mins by colorimetric method
T2 sequence (O15496 whole entry): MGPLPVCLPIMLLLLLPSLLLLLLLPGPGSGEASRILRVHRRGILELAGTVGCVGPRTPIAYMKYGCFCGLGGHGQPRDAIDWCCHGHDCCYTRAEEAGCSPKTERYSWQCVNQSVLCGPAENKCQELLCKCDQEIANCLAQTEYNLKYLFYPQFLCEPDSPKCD

`CCc1c(C(=O)C(N)=O)c2c(OCC(=O)O)cccc2n1Cc1ccccc1` [VARESPLADIB] was tested, and the IC50 [1] was 28 nM and the IC50 [2] was 41 nM.
